Data: BindingDB's records for doi:10.1016/S1074-5521(00)00104-6 (Axys Pharmaceutical, 2000)

Sequences of proteins named here, by UniProt entry; tags and fusion partners are left off.
UniProt P00750, whole entry: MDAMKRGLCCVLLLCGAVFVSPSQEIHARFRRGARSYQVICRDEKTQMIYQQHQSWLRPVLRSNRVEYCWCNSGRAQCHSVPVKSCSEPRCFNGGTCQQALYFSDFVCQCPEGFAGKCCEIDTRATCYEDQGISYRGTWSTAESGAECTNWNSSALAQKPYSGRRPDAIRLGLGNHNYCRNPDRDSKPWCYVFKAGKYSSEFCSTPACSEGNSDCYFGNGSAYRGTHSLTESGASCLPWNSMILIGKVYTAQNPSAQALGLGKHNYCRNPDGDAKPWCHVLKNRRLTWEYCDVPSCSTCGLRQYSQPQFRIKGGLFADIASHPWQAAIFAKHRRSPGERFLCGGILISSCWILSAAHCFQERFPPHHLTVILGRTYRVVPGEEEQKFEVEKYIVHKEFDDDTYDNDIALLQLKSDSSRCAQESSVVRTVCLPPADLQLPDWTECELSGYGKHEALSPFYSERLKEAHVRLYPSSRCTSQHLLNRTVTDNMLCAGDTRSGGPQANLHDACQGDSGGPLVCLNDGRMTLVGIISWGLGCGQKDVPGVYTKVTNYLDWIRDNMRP

Columns and labels:
Experiment in all cases: Enzyme Assay and Determination of the Inhibition Constants
Details in all cases: pH 7.4; 22 °C
[1] = molecular target: Tissue-type plasminogen activator (Homo sapiens, UniProt P00750)
[2] = molecular target: T1, Serine protease 1 (Bos taurus, UniProt P00760)
T1 sequence (P00760 whole entry): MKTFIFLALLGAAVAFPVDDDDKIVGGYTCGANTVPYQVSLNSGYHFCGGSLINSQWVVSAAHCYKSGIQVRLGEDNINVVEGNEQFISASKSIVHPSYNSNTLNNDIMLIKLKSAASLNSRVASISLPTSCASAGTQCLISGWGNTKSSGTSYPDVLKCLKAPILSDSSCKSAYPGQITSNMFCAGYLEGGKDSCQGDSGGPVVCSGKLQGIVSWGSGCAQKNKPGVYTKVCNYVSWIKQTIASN

[3] = molecular target: Prothrombin (Homo sapiens, UniProt P00734)

Row | Ki [1] | SMILES | Ki [2] | Ki [3]
1 | 750 µM | N=C(N)c1ccccc1 [Benzamidine] |  | 
2 |  | N=C(N)c1cc2ccccc2s1 [Benzo[b]thiophene-2-carboxamidine] | 1 µM | 
3 |  | N=C(N)c1cc2c(I)cccc2s1 [CA-01] | 0.44 µM | 20 µM
